# Assay results from PubChem BioAssay AID602363 (Broad Institute, 2012).
# The whole screen tested about 350,000 compounds, of which about 450 (0.13%) were called active. The entries come from a sample that favours actives as a whole. A number with no mark means an inactive call.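 Rule for the calls: active = replicate mean at a twofold rise or more (about +100% in these data); inactive = the rest.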
# Assay: UUG initiation codon usage in yeast – whole organism, S. cerevisiae, single point, plate reader, primary screen (AID 602363);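 note: firefly luciferase made from a UUG start codon reports start codon fidelity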
# Conditions: S. cerevisiae UUG-firefly luciferase reporter, luminescence/redox ratio; at 18.7 µM; active compounds read high
row,Compound,activity score
1,COc1ccc(NC(=O)Nc2cccc3c2O[C@@H](CN(C)Cc2ccncc2)[C@H](C)CN([C@H](C)CO)C3=O)cc1,-5.85%
2,CC(C)C#Cc1ccc2c(c1)O[C@@H](CN(C)C(=O)Nc1ccccc1)[C@H](C)CN([C@H](C)CO)S2(=O)=O,-2.56%
3,CCC(=O)N(C)C[C@@H]1Oc2ncc(C#CCC3CCCC3)cc2C(=O)N([C@@H](C)CO)C[C@H]1C,5.33%
4,O=C(c1ccncc1)N1C[C@H]2[C@@H](c3ccccc31)[C@H](CO)N2C(=O)c1ccccn1,-20.1%
5,O=C(N[C@H]1CC[C@@H](CCNS(=O)(=O)c2ccc(Cl)cc2)O[C@H]1CO)c1cccc(F)c1,12.6%
6,CC(C)CC#Cc1cnc2c(c1)C(=O)N([C@H](C)CO)C[C@H](C)[C@@H](CN(C)Cc1ccccc1)O2,16.5%
7,C[C@H](CO)N1C[C@H](C)[C@@H](CN(C)C(=O)C2CCCCC2)Oc2cc(-c3ccccc3)ccc2S1(=O)=O,9.53%
8,C[C@H]1CN([C@@H](C)CO)C(=O)c2cc(NC(=O)Cn3cnnn3)ccc2O[C@@H]1CN(C)S(=O)(=O)c1cccs1,-10.2%
9,O=C(O)C[C@@H]1C[C@@H]2c3cc(NC(=O)NC4CCCC4)ccc3O[C@@H]2[C@H](CO)O1,-9.94%
10,COc1cccc(S(=O)(=O)Nc2ccc3c(c2)[C@H]2C[C@H](CC(=O)O)O[C@H](CO)[C@H]2O3)c1,-0.528%
11,Cc1noc(C)c1NC(=O)Nc1ccc2c(c1)C(=O)N([C@H](C)CO)C[C@H](C)[C@@H](CN(C)Cc1ccc3c(c1)OCO3)OCCCC[C@@H](C)O2,-5.08%
12,C[C@@H]1CN([C@@H](C)CO)C(=O)c2cc(C#CC(C)(C)O)cnc2O[C@@H]1CN(C)C(=O)C1CCOCC1,-1.48%
13,CC(=O)N1CC(=O)N(CC(=O)Nc2ccc(Br)cc2)C1=S,120% (active)
14,CCc1ccc(NC(=O)CN2C(=O)CSC2=O)cc1,-4.72%
15,Cc1cccc(NC(=O)CN2C(=O)CNC2=O)c1,-17.5%
16,CCCNC(=O)N(C)C[C@H]1Oc2ncc(C#CC(C)C)cc2C(=O)N([C@@H](C)CO)C[C@@H]1C,11.9%
17,CO[C@H]1CN(C)C(=O)c2cc(NC(=O)c3cc(C)on3)ccc2OC[C@H](C)N(C(C)=O)C[C@H]1C,7.59%
18,O=C(Cc1ccccn1)N[C@H]1CC[C@H](CCNS(=O)(=O)c2cccc(F)c2)O[C@@H]1CO,-14.5%
19,CC(=O)N1C[C@@H]2[C@H](c3ccccc31)[C@H](CO)N2C(=O)Nc1ccc(F)cc1,27%
20,O=C(C[C@@H]1C=C[C@H](NC(=O)CCN2CCCCC2)[C@H](CO)O1)NCc1ccc(Cl)c(Cl)c1,-10.1%
21,Cc1ccc(NC(=O)c2ccco2)cc1,13.9%

row,Compound,activity score
1,O=C(Nc1ccc(Oc2ccccc2)cc1)c1ccco1,570% (active)
2,O=C(NNC(=O)c1ccco1)Nc1ccccc1,-11.9%
3,CC(C)NC(=O)N1CCCCN2[C@H](CO)[C@H](c3ccc(C#C[C@H](C)O)cc3)[C@H]2C1,4.66%
4,Cc1noc(C)c1S(=O)(=O)N(C)C[C@@H]1OCCCC[C@H](C)Oc2ccc(NC(=O)Nc3ccc4c(c3)OCO4)cc2C(=O)N([C@H](C)CO)C[C@@H]1C,-17.6%
5,O=C(Nc1ccc(Cl)cc1)N1C[C@@H]2[C@H](c3ccccc31)[C@@H](CO)N2C(=O)c1cccnc1,-17%
6,CC(C)NC(=O)Nc1ccc2c(c1)C(=O)N([C@@H](C)CO)C[C@H](C)[C@@H](CN(C)C(=O)Nc1ccc(F)cc1)OCCCC[C@H](C)O2,-6.2%
7,C[C@H](CO)N1C[C@H](C)[C@H](CN(C)Cc2ccc3c(c2)OCO3)Oc2c(cccc2N(C)C)C1=O,-9.31%
8,COc1ccc(S(=O)(=O)N(C)C[C@H]2OCCCC[C@@H](C)Oc3ccc(NC(=O)CCC(F)(F)F)cc3C(=O)N([C@@H](C)CO)C[C@H]2C)cc1,1.93%
9,C=CCOC(=O)[C@H]1[C@@H]2C(=O)O[C@@H](c3ccccc3)[C@@H](c3ccccc3)N2[C@@H](c2ccc(OCCOC(=O)[C@H]3C[C@H]4C(=O)NCC(=O)N4[C@H]3c3ccc(O)cc3)cc2)[C@]12C(=O)Nc1ccccc12,-7.32%
10,COc1ccccc1-c1cnc2c(c1)C(=O)N([C@H](C)CO)C[C@@H](C)[C@@H](CN(C)CC1CCCC1)O2,-0.682%
11,C[C@H](CO)N1C[C@H](C)[C@H](CN(C)C(=O)c2ccccn2)Oc2ncc(-c3ccccc3F)cc2C1=O,9.71%
12,Cc1noc(C)c1NC(=O)N(C)C[C@@H]1Oc2ccc(NS(=O)(=O)c3ccc(Cl)cc3)cc2C(=O)N([C@@H](C)CO)C[C@H]1C,9.56%
13,C[C@H](CO)N1C[C@H](C)[C@@H](CN(C)Cc2ccc(Cl)c(Cl)c2)Oc2c(NC(=O)C3CCCCC3)cccc2C1=O,0.419%
14,CO[C@H]1CN(C)C(=O)c2cc(NS(C)(=O)=O)ccc2OC[C@H](C)N(C(=O)C2CCCC2)C[C@H]1C,-1.38%
15,C[C@@H]1CN([C@H](C)CO)C(=O)Cc2cc(NS(=O)(=O)c3ccc(Cl)cc3)ccc2O[C@@H]1CN(C)S(=O)(=O)c1ccc(Cl)cc1,-17.9%
16,Cc1ccc(S(=O)(=O)N(C)C[C@@H]2Oc3ccc(NS(=O)(=O)c4c(C)noc4C)cc3CC(=O)N([C@H](C)CO)C[C@H]2C)cc1,12.2%
17,CCCNC(=O)C[C@H]1CC[C@@H]2[C@H](COc3ccc(NC(=O)c4ccc(OC)cc4)cc3C(=O)N2C)O1,4.65%
18,C[C@@H](NC(=O)C[C@H]1C[C@H]2c3cc(NC(=O)Nc4ccccc4F)ccc3O[C@H]2[C@@H](CO)O1)c1ccccc1,-2.05%
19,CCCNC(=O)N1C[C@@H](O)COC[C@H]2O[C@@H](CC(=O)NCCCN3CCOCC3)CC[C@@H]21,-4.24%
20,C[C@@H]1CN([C@@H](C)CO)C(=O)c2cc(NS(=O)(=O)c3cccs3)ccc2O[C@@H]1CN(C)S(=O)(=O)c1ccc(F)cc1,2.8%
21,C[C@@H]1CCCCO[C@@H](CN(C)S(C)(=O)=O)[C@H](C)CN([C@@H](C)CO)C(=O)c2cc(NC(=O)Nc3ccc4c(c3)OCO4)ccc2O1,12.2%

row,Compound,activity score
1,C[C@H]1CN([C@@H](C)CO)C(=O)c2cc(-c3ccccc3F)cnc2O[C@@H]1CN(C)C(=O)C1CCCCC1,12.9%
2,CO[C@@H]1CN(C)C(=O)c2cc(NC(=O)NC3CCCCC3)ccc2OC[C@H](C)N(CC2CC2)C[C@H]1C,-4.52%
3,CC(=O)N(C)C[C@H]1Oc2cc(C#CC3CC3)ccc2S(=O)(=O)N([C@H](C)CO)C[C@@H]1C,22%
4,COc1ccccc1C#Cc1ccc([C@H]2[C@H](CO)N3CCCCN(C(=O)C4CCC4)C[C@@H]23)cc1,29.8%
5,Cc1ccccc1-c1cnc2c(c1)C(=O)N([C@@H](C)CO)C[C@@H](C)[C@@H](CN(C)CC1CCOCC1)O2,-10.7%
6,C[C@H]1CN([C@@H](C)CO)S(=O)(=O)c2ccc(C#CCN(C)C)cc2O[C@H]1CN(C)C(=O)CN(C)C,28.3%
7,C[C@@H]1CN([C@@H](C)CO)S(=O)(=O)c2ccc(C#Cc3ccc(F)cc3)cc2O[C@H]1CN(C)C(=O)NC1CCCC1,273% (active)
8,C[C@@H]1CN([C@@H](C)CO)S(=O)(=O)c2ccc(C#Cc3ccc(F)cc3)cc2O[C@@H]1CN(C)CC1CC1,11.3%
9,CC(C)C#Cc1ccc2c(c1)O[C@@H](CN(C)C(=O)CN(C)C)[C@@H](C)CN([C@H](C)CO)S2(=O)=O,61.3% (active)
10,C/C=C/c1ccc2c(c1)O[C@@H](CN(C)C(=O)NC1CCCC1)[C@@H](C)CN([C@H](C)CO)S2(=O)=O,12.5%
11,C[C@@H]1CN([C@@H](C)CO)S(=O)(=O)c2ccc(C#C[C@@H](C)O)cc2O[C@@H]1CN(C)C(=O)CN(C)C,-1.41%
12,Cc1ccc(S(=O)(=O)N(C)C[C@@H]2Oc3ccc(NC(=O)NC4CCCCC4)cc3C(=O)N([C@@H](C)CO)C[C@H]2C)cc1,-6.25%
13,C[C@@H]1CN([C@@H](C)CO)S(=O)(=O)c2ccc(C#Cc3ccccc3)cc2O[C@@H]1CN(C)C(=O)C1CC1,-28.6%
14,COCC#Cc1cnc2c(c1)C(=O)N([C@@H](C)CO)C[C@@H](C)[C@@H](CN(C)C(=O)c1cccnc1)O2,-8.09%
15,CN1c2ccc(Br)cc2[C@@H]2[C@@H](CCN2C(=O)C2CCCCC2)[C@H]1CO,25.4%
16,C[C@H](CO)N1C[C@H](C)[C@H](CN(C)C(=O)Nc2cccc3ccccc23)Oc2ncc(C#Cc3ccccc3)cc2C1=O,-10%
17,Cc1ccccc1S(=O)(=O)N1[C@H](C#N)[C@H](c2ccccc2)[C@H]1CO,-7.59%
18,C[C@H](CO)N1C[C@H](C)[C@H](CN(C)S(=O)(=O)c2cccs2)Oc2ccc(NS(=O)(=O)c3ccc(Cl)cc3)cc2CC1=O,3.99%
19,COc1ccc(CN(C)C[C@H]2OCCCC[C@H](C)Oc3ccc(NC(=O)Nc4ccc5c(c4)OCO5)cc3C(=O)N([C@H](C)CO)C[C@@H]2C)cc1,0.433%
20,C[C@H](CO)N1C[C@H](C)[C@H](CN(C)S(=O)(=O)c2cccs2)Oc2c(NC(=O)Nc3ccc4c(c3)OCO4)cccc2C1=O,6.62%
